Target: T1, rat PAC1 receptor (Rattus norvegicus, UniProt P32215)
T1 construct: SHSY-5Y (human neuroblastoma cell line) and RG-2 (rat glioma cell line) cells endogenously express human and rat PAC1 receptors, respectively; endogenous in cells; host or cells: RG-2 rat glioma cells
T1 sequence (P32215 20-523): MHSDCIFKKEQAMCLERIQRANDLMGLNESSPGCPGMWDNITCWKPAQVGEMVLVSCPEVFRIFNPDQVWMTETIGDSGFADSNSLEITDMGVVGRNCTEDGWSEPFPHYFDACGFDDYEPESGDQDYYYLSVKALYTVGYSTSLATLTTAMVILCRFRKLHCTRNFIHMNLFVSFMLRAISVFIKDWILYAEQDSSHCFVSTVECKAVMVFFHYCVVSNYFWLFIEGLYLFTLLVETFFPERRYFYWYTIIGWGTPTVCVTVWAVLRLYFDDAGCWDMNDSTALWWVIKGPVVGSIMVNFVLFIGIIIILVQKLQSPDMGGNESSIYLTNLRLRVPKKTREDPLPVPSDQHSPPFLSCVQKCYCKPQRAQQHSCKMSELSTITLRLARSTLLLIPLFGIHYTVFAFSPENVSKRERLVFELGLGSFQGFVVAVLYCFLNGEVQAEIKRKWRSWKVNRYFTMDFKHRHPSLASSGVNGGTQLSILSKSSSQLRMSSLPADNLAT
Experiment: LANCE Ultra cAMP accumulation antagonist assay in RG-2 cells;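 note: RG-2 rat glioma cells endogenously expressing PAC1, test peptide preincubated 30 min, then PAC1 agonist added at its EC80 for 15 min, cAMP accumulation read by LANCE Ultra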
Format: cell-based

Row | SMILES | IC50
1 | CC[C@H](C)[C@H](NC(=O)[C@H](C)NC(=O)[C@H](CCCCN)NC(=O)[C@H](CCCNC(=N)N)NC(=O)[C@H](Cc1ccccc1)NC(=O)[C@H](CCC(N)=O)NC(=O)[C@@H]1CSSC[C@H](N)C(=O)N[C@@H](CC(=O)O)C(=O)N[C@@H](C)C(=O)N[C@@H]([C@@H](C)O)C(=O)N1)C(=O)N[C@@H](CC(=O)O)C(=O)N[C@@H](CC(=O)O)C(=O)N[C@H]1CSSC[C@@H](C(=O)N[C@@H](CCSC)C(=O)N[C@@H](CCCCN)C(=O)N[C@@H](CCC(N)=O)C(=O)N[C@@H](CCCCN)C(=O)N[C@@H](CCCCN)C(=O)N[C@@H](CCCCN)C(=O)N[C@@H](CCC(=O)O)C(=O)N[C@@H](Cc2c[nH]c3ccccc23)C(=O)N[C@@H](CCCCN)C(=O)N[C@@H](C)C(=O)N[C@@H](CC(N)=O)C(N)=O)NC(=O)C(C)(C)NC(=O)[C@H](CCCCN)NC(=O)[C@H](Cc2ccccc2)NC(=O)[C@H](C(C)C)NC(=O)[C@H](CO)NC(=O)CNC(=O)[C@@H]2CCCN2C(=O)[C@H](C(C)C)NC(=O)[C@H](CC(N)=O)NC(=O)[C@H](CO)NC(=O)[C@H](Cc2c[nH]cn2)NC(=O)[C@H](Cc2c[nH]cn2)NC(=O)[C@H](C)NC(=O)[C@H](CCC(N)=O)NC(=O)[C@H](CCCCN)NC(=O)[C@H](CCC(N)=O)NC1=O [compound 166] | 10 to 1000 pM
2 | CC[C@H](C)[C@H](NC(=O)[C@H](C)NC(=O)[C@H](CCCCN)NC(=O)[C@H](CCCNC(=N)N)NC(=O)[C@H](Cc1ccccc1)NC(=O)[C@H](CCC(N)=O)NC(=O)[C@@H]1CSSC[C@H](N)C(=O)N[C@@H](CC(=O)O)C(=O)N[C@@H](C)C(=O)N[C@@H]([C@@H](C)O)C(=O)N1)C(=O)N[C@@H](CC(=O)O)C(=O)N[C@@H](CC(=O)O)C(=O)N[C@H]1CSSC[C@@H](C(=O)N[C@@H](CCSC)C(=O)N[C@@H](CCCCN)C(=O)N[C@@H](CCC(N)=O)C(=O)N[C@@H](CCCCN)C(=O)N[C@@H](CCCCN)C(=O)N[C@@H](CCCCN)C(=O)N[C@@H](CCC(=O)O)C(=O)N[C@@H](Cc2ccccc2)C(=O)N[C@@H](CCCCN)C(=O)N[C@@H](C)C(=O)NCC(N)=O)NC(=O)C(C)(C)NC(=O)[C@H](CCCCN)NC(=O)[C@H](Cc2ccccc2)NC(=O)[C@H](CO)NC(=O)[C@H](CC(N)=O)NC(=O)CNC(=O)[C@@H]2CCCN2C(=O)[C@H](C(C)C)NC(=O)[C@H](CC(N)=O)NC(=O)[C@H](CO)NC(=O)[C@H](Cc2c[nH]cn2)NC(=O)[C@H](Cc2c[nH]cn2)NC(=O)[C@H](C)NC(=O)[C@H](CCC(N)=O)NC(=O)[C@H](CCCCN)NC(=O)[C@H](CCC(N)=O)NC1=O [compound 186] | 10 to 1000 pM
3 | CC[C@H](C)[C@H](NC(=O)[C@H](C)NC(=O)[C@H](CCCCN)NC(=O)[C@H](CCCNC(=N)N)NC(=O)[C@H](Cc1ccccc1)NC(=O)[C@H](CCC(N)=O)NC(=O)[C@@H]1CSSC[C@H](N)C(=O)N[C@@H](CC(=O)O)C(=O)N[C@@H](C)C(=O)N[C@@H]([C@@H](C)O)C(=O)N1)C(=O)N[C@@H](CC(=O)O)C(=O)N[C@@H](CC(=O)O)C(=O)N[C@H]1CSSC[C@@H](C(=O)N[C@@H](CCSC)C(=O)N[C@@H](CCCCN)C(=O)N[C@@H](CCC(N)=O)C(=O)N[C@@H](CCCCN)C(=O)N[C@@H](CCCCN)C(=O)N[C@@H](CCCCN)C(=O)N[C@@H](CCC(=O)O)C(=O)N[C@@H](Cc2ccc(I)cc2)C(=O)N[C@@H](CCCCN)C(=O)N[C@@H](C)C(=O)NCC(N)=O)NC(=O)C(C)(C)NC(=O)[C@H](CCCCN)NC(=O)[C@H](Cc2ccccc2)NC(=O)[C@H](C(C)C)NC(=O)[C@H](CO)NC(=O)CNC(=O)[C@@H]2CCCN2C(=O)[C@H](C(C)C)NC(=O)[C@H](CC(N)=O)NC(=O)[C@H](CO)NC(=O)[C@H](Cc2c[nH]cn2)NC(=O)[C@H](Cc2c[nH]cn2)NC(=O)[C@H](C)NC(=O)[C@H](CCC(N)=O)NC(=O)[C@H](CCCCN)NC(=O)[C@H](CCC(N)=O)NC1=O [compound 187] | 10 to 1000 pM
4 | CC[C@H](C)[C@H](NC(=O)[C@H](C)NC(=O)[C@H](CCCCN)NC(=O)[C@H](CCCNC(=N)N)NC(=O)[C@H](Cc1ccccc1)NC(=O)[C@H](CCC(N)=O)NC(=O)[C@@H]1CSSC[C@H](N)C(=O)N[C@@H](CC(=O)O)C(=O)N[C@@H](C)C(=O)N[C@@H]([C@@H](C)O)C(=O)N1)C(=O)N[C@@H](CC(=O)O)C(=O)N[C@@H](CC(=O)O)C(=O)N[C@H]1CSSC[C@@H](C(=O)N[C@@H](CCSC)C(=O)N[C@@H](CCCCN)C(=O)N[C@@H](CCC(N)=O)C(=O)N[C@@H](CCCCN)C(=O)N[C@@H](CCCCN)C(=O)N[C@@H](CCCCN)C(=O)N[C@@H](CCC(=O)O)C(=O)N[C@@H](Cc2ccccc2)C(=O)N[C@@H](CCCCN)C(=O)N[C@@H](C)C(=O)NCC(N)=O)NC(=O)C(C)(C)NC(=O)[C@H](CCCCN)NC(=O)[C@H](Cc2ccccc2)NC(=O)[C@H](C(C)C)NC(=O)[C@H](CO)NC(=O)CNC(=O)[C@@H]2C=CCN2C(=O)[C@H](C(C)C)NC(=O)[C@H](CC(N)=O)NC(=O)[C@H](CO)NC(=O)[C@H](Cc2c[nH]cn2)NC(=O)[C@H](Cc2c[nH]cn2)NC(=O)[C@H](C)NC(=O)[C@H](CCC(N)=O)NC(=O)[C@H](CCCCN)NC(=O)[C@H](CCC(N)=O)NC1=O [compound 188] | 10 to 1000 pM
5 | CC[C@H](C)[C@H](NC(=O)[C@H](C)NC(=O)[C@H](CCCCN)NC(=O)[C@H](CCCNC(=N)N)NC(=O)[C@H](Cc1ccccc1)NC(=O)[C@H](CCC(N)=O)NC(=O)[C@@H]1CSSC[C@H](N)C(=O)N[C@@H](CC(=O)O)C(=O)N[C@@H](C)C(=O)N[C@@H]([C@@H](C)O)C(=O)N1)C(=O)N[C@@H](CC(=O)O)C(=O)N[C@@H](CC(=O)O)C(=O)N[C@H]1CSSC[C@@H](C(=O)N[C@@H](CCSC)C(=O)N[C@@H](CCCCN)C(=O)N[C@@H](CCC(N)=O)C(=O)N[C@@H](CCCCN)C(=O)N[C@@H](CCCCN)C(=O)N[C@@H](CCCCN)C(=O)N[C@@H](CCC(=O)O)C(=O)N[C@@H](Cc2ccccc2)C(=O)N[C@@H](CCCCN)C(=O)N[C@@H](C)C(=O)NCC(N)=O)NC(=O)C(C)(C)NC(=O)[C@H](CCCCN)NC(=O)[C@H](Cc2ccccc2)NC(=O)[C@H](C(C)C)NC(=O)[C@H](CO)NC(=O)CNC(=O)[C@@H]2CCCN2C(=O)[C@H](CCC(=O)O)NC(=O)[C@H](CC(N)=O)NC(=O)[C@H](CO)NC(=O)[C@H](Cc2c[nH]cn2)NC(=O)[C@H](Cc2c[nH]cn2)NC(=O)[C@H](C)NC(=O)[C@H](CCC(N)=O)NC(=O)[C@H](CCCCN)NC(=O)[C@H](CCC(N)=O)NC1=O [compound 191] | 10 to 1000 pM
6 | CC[C@H](C)[C@H](NC(=O)[C@H](C)NC(=O)[C@H](CCCCN)NC(=O)[C@H](CCCNC(=N)N)NC(=O)[C@H](Cc1ccccc1)NC(=O)[C@H](CCC(N)=O)NC(=O)[C@@H]1CSSC[C@H](N)C(=O)N[C@@H](CC(=O)O)C(=O)N[C@@H](C)C(=O)N[C@@H]([C@@H](C)O)C(=O)N1)C(=O)N[C@@H](CC(=O)O)C(=O)N[C@@H](CC(=O)O)C(=O)N[C@H]1CSSC[C@@H](C(=O)N[C@@H](CCSC)C(=O)N[C@@H](CCCCN)C(=O)N[C@@H](CCC(N)=O)C(=O)N[C@@H](CCCCN)C(=O)N[C@@H](CCCCN)C(=O)N[C@@H](CCCCN)C(=O)N[C@@H](CCC(=O)O)C(=O)N[C@@H](Cc2ccccc2)C(=O)N[C@@H](CCCCN)C(=O)N[C@@H](C)C(=O)NCC(N)=O)NC(=O)C(C)(C)NC(=O)[C@H](CCCCN)NC(=O)[C@H](Cc2ccccc2)NC(=O)[C@H](C(C)C)NC(=O)[C@H](CO)NC(=O)CNC(=O)[C@@H]2CCCN2C(=O)[C@H](C(C)C)NC(=O)[C@H](CCC(=O)O)NC(=O)[C@H](CO)NC(=O)[C@H](Cc2c[nH]cn2)NC(=O)[C@H](Cc2c[nH]cn2)NC(=O)[C@H](C)NC(=O)[C@H](CCC(N)=O)NC(=O)[C@H](CCCCN)NC(=O)[C@H](CCC(N)=O)NC1=O [compound 192] | 10 to 1000 pM
7 | CC[C@H](C)[C@H](NC(=O)[C@H](C)NC(=O)[C@H](CCCCN)NC(=O)[C@H](CCCNC(=N)N)NC(=O)[C@H](Cc1ccccc1)NC(=O)[C@H](CCC(N)=O)NC(=O)[C@@H]1CSSC[C@H](N)C(=O)N[C@@H](CC(=O)O)C(=O)N[C@@H](C)C(=O)N[C@@H]([C@@H](C)O)C(=O)N1)C(=O)N[C@@H](CC(=O)O)C(=O)N[C@@H](CC(=O)O)C(=O)N[C@H]1CSSC[C@@H](C(=O)N[C@@H](CCSC)C(=O)N[C@@H](CCCCN)C(=O)N[C@@H](CCC(N)=O)C(=O)N[C@@H](CCCCN)C(=O)N[C@@H](CCCCN)C(=O)N[C@@H](CCCCN)C(=O)N[C@@H](CCC(=O)O)C(=O)N[C@@H](Cc2ccccc2)C(=O)N[C@@H](CCCCN)C(=O)N[C@@H](C)C(=O)NCC(N)=O)NC(=O)C(C)(C)NC(=O)[C@H](CCCCN)NC(=O)[C@H](Cc2ccccc2)NC(=O)[C@H](C(C)C)NC(=O)[C@H](CO)NC(=O)[C@H](CC(N)=O)NC(=O)[C@@H]2CCCN2C(=O)[C@H](C(C)C)NC(=O)[C@H](CC(N)=O)NC(=O)[C@H](CO)NC(=O)[C@H](Cc2c[nH]cn2)NC(=O)[C@H](Cc2c[nH]cn2)NC(=O)[C@H](C)NC(=O)[C@H](CCC(N)=O)NC(=O)[C@H](CCCCN)NC(=O)[C@H](CCC(N)=O)NC1=O [compound 193] | 10 to 1000 pM

— patent US20210395313A1, “PEPTIDE PAC1 ANTAGONISTS” (AMGEN INC., priority 2017, published 2021)
